Results taken from US10857137B2, “Methods for the administration of certain VMAT2 inhibitors” (Neurocrine Biosciences, Inc., priority 2017, dated 2020).

Amino acid sequences for entries named in this document (tags omitted).
UniProt Q01827, whole entry: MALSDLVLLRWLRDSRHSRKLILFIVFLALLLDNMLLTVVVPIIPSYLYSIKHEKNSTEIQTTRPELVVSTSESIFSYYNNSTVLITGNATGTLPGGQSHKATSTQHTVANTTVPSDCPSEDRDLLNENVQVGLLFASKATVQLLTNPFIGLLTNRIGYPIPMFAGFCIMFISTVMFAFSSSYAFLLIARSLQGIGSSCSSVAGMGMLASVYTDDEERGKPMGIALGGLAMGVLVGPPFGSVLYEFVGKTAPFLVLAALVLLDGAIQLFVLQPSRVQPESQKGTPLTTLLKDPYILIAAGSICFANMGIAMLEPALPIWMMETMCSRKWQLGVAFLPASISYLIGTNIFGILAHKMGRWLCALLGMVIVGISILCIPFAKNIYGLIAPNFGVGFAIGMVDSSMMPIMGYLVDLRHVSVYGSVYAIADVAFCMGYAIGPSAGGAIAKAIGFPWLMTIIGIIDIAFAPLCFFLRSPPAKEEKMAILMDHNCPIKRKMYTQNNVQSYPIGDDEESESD

Target: T1, VMAT2 (Rattus norvegicus, UniProt Q01827)
T1 construct: from tissue; host or cells: rat forebrain membranes
Assay: Inhibition of [3H]-DHTBZ binding to rat forebrain membranes

Compound	VMAT2 inhibition, in words	affinity, times weaker than R,R,R-DHTBZ
COc1cc2c(cc1OC)[C@H]1C[C@@H](O)[C@H](CC(C)C)CN1CC2 [R,R,R-DHTBZ, (2R,3R,11bR)-3-isobutyl-9,10-dimethoxy-1,3,4,6,7,11b-hexahydro-2H-pyrido[2,1-a]isoquinolin-2-ol]	most potent inhibitor of VMAT2	–
COc1cc2c(cc1OC)[C@@H]1C[C@@H](O)[C@@H](CC(C)C)CN1CC2 [R,S,S-DHTBZ]	poor VMAT2 inhibitors	~160 times
COc1cc2c(cc1OC)[C@@H]1C[C@H](O)[C@@H](CC(C)C)CN1CC2 [S,S,S-DHTBZ]	poor VMAT2 inhibitors	approximately 60 times
